Settings in all cases: both partners purified
Assay [1] has as its target T1, JMJD2A Tudor domain (amino acids 894-1011) (human, UniProt O75164 894-1011).
T1 construct: JMJD2A (KDM4A), Tudor domain, amino acids 894-1011; also called JMJD2ATD; source: E. coli BL21(DE3) RIL, purified (nickel column, ULP1 cleavage, anion exchange, nickel, SEC); not shown: His6-SUMO, N-terminal, cleaved
T1 sequence (looked up): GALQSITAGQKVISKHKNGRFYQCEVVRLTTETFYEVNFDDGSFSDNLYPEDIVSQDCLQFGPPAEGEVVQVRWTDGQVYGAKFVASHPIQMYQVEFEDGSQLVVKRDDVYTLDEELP
Kind of assay: ITC; JMJD2ATD titrated with the H4(14-25)K20me3 peptide; 5 °C; single-site binding mode. A general note: Isothermal titration calorimetry measures the heat released or taken up as one component is titrated into another.

The target in assay [2] is T2, human DNMT1 BAH1 domain (residues 728-900), wild type (human, UniProt P26358 728-900).
T2 construct: numbering on isoform 1 of 1616 amino acids; modified pRSF-Duet vector; also called hDNMT1_(BAH1), WT; source: E. coli BL21(DE3) RIL, purified (nickel column, ULP1 cleavage, anion exchange, nickel, SEC); not shown: His6-SUMO, N-terminal, cleaved
Kind of assay: ITC; 1 mM H4K20me peptide titrated over 0.1 mM hDNMT1 BAH1 or BAH2 domain; 25 mM Tris-HCl pH 7.5, 100 mM NaCl, 2 mM DTT; 5 °C; single-site binding mode.

For assay [3], the target named is T3, human DNMT1 BAH1 domain (residues 728–900) (human, UniProt P26358 728-900).
T3 construct: numbering on isoform 1 of DNMT1 with 1616 amino acids; modified pRSF-Duet vector; also called hDNMT1_(BAH1); source: E. coli BL21(DE3) RIL, purified (Ni, ULP1 cleavage, Q XL, Ni, SEC); not shown: His6-SUMO, N-terminal, cleaved
In words: ITC; 1 mM H4K20me peptide titrated over 0.1 mM hDNMT1 BAH1; 5 °C; 25 mM Tris-HCl pH 7.5, 100 mM NaCl, 2 mM DTT; single-site fit.

The target of another assay is T4, MBP-hDNMT1(351–1600) (human, UniProt P26358 351-1600).
T4 construct: numbering on isoform 1 of DNMT1 with 1616 amino acids; also called WT; source: E. coli BL21(DE3) RIL, purified (Ni, ion exchange, SEC); not shown: His6-MBP, N-terminal, kept

Where only a bound is given, the exact number is not on record here.

B1: H4(14-25)K20me3 peptide (peptide)
peptide: GAKRHRKVLRDNY
modifications: trimethyl-lysine at K20
notes: histone H4, residues 14-25; additional C-terminal tyrosine for spectroscopic quantification; also called H4K20me3 peptide; source: synthetic peptide (LifeTein)
Molecule B1 had a Kd in assay [1] of 510 nM. Also, the “stoichiometry N” value in assay [1] worked out at 0.97; in assay [2] it was 0.79.

B2: H4(14–25)K20me3 peptide (peptide)
peptide: GAKRHRKVLRDNY
modifications: trimethyl-lysine at K20
notes: as for B1
In the case of B2, the Kd is 2.7 µM in assay [3] and greater than 300 µM with MBP-hDNMT1(351–1600).

B3: H4(14-25)K20me1 peptide (peptide)
peptide: GAKRHRKVLRDNY
modifications: monomethyl-lysine at K20
notes: histone H4, residues 14-25; additional C-terminal tyrosine for spectroscopic quantification; source: synthetic peptide (LifeTein)
As for B3, in assay [2], the Kd came to 11.4 µM and the “stoichiometry N” value amounted to 0.74.

B4: H4(14-25)K20me2 peptide (peptide)
peptide: GAKRHRKVLRDNY
modifications: dimethyl-lysine at K20
notes: as for B3
Turning to B4, the “stoichiometry N” value in assay [2] is 0.74.

B5: H4(14–25)K20me1 peptide (peptide)
peptide: GAKRHRKVLRDNY
modifications: monomethyl-lysine at K20
notes: as for B3
B5 came in with a Kd in assay [3] of 10.6 µM.

B6: H4(14–25)K20me2 peptide (peptide)
peptide: GAKRHRKVLRDNY
modifications: dimethyl-lysine at K20
notes: histone H4, residues 14-25; additional C-terminal tyrosine for spectroscopic quantification; also called H4K20me2 peptide; source: synthetic peptide (LifeTein)
In assay [3], B6 came in with a Kd of 4.1 µM.

The Kd is a measure of binding affinity in units of concentration. A higher Kd goes with a looser complex. A word on the stoichiometry N: it is the number of molecules, sites or subunits per partner or assembly.

Source of the values: publication PMC8093215 (Nature Communications, 2021).
